Earlier results on one substance are cited in patent US5976535A, “Pretargeting protocols for the enhanced localization of cytotoxins to target sites and cytotoxic combinations useful therefore” (NeoRx Corporation, priority 1995, dated 1999).

For the data set the following is noted: post-administration; cited from earlier work.

Consider “IL-2: interleukin-2, molecular weight of 15,500 daltons, 133 amino acids”, for which the circulation half-life entry is “about 10 minutes”.
